Measured values published in PMC10466050, “A comparative study of human and zebrafish glucocorticoid receptor activities of natural and pharmaceutical steroids” (Frontiers in Endocrinology, 2023).

By UniProt entry, the sequences of proteins in these tests, tags left out.
UniProt Q1XHK0, entry or part of it: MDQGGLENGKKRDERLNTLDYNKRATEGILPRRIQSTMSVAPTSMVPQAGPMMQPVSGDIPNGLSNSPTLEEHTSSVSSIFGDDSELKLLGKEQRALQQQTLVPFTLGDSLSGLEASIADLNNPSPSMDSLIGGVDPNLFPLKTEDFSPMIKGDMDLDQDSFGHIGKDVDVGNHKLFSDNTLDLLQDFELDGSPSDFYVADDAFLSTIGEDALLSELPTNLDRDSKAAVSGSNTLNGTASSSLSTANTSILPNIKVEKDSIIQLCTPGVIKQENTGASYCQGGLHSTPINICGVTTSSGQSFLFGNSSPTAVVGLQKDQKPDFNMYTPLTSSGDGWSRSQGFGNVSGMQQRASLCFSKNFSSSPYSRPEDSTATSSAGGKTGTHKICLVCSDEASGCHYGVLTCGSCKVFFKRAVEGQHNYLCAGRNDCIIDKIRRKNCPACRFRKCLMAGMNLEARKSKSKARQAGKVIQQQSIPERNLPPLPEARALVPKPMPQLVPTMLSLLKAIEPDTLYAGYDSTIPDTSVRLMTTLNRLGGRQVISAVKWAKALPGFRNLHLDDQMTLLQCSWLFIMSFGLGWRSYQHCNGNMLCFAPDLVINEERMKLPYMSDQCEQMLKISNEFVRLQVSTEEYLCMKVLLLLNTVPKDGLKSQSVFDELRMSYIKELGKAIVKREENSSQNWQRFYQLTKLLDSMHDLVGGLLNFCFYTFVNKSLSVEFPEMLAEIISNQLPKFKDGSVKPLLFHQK

Biological target: zfGR (Danio rerio, UniProt Q1XHK0)
Test: Antagonistic activity assessment in presence of 3 nM dexamethasone, UMLN-zfGR cells
Assay type: cell-based, zebrafish
Settings: UMLN-zfGR; with 3 nM dexamethasone; % of maximal luciferase activity induced by 100 nM dexamethasone; at 10^-5M

CC(=O)[C@H]1CC[C@H]2[C@@H]3C=CC4=CC(=O)CC[C@@]4(C)[C@@H]3CC[C@]12C [dydrogesterone]
% min act (minimal activity): 24 ± 6%

CCOC1=CC2=C(C)CC3C(C(O)CC4(C)C3CC(C)C43OCOC34COCO4)C2(C)CC1 (centres unmarked) [forbimenol]
% min act (minimal activity): 20 ± 4%
